Reference: patent publication US11220479B2, “Glucosylceramide synthase inhibitors and therapeutic methods using the same” (THE REGENTS OF THE UNIVERSITY OF MICHIGAN, priority 2019, dated 2022)

Biological target: T1, glucosylceramide synthase (GCS) (Canis lupus familiaris, UniProt A0A8I3MXG6)
T1 construct: endogenous in cells; host or cells: parental (wild-type) MDCKII cells
T1 sequence (A0A8I3MXG6 1-394): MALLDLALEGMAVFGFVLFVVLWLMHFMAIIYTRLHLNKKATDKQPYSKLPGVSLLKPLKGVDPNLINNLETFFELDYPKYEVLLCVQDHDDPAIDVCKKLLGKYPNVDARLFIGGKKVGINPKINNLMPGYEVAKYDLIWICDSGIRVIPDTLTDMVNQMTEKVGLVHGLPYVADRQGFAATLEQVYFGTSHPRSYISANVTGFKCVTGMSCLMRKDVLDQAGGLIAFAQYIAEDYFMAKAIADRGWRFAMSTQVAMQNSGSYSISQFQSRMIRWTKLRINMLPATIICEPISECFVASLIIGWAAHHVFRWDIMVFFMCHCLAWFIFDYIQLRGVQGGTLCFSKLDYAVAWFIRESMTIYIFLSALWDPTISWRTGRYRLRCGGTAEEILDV
Experiment: GCS inhibition in MDCKII cells (inhibition of GlcCer production in whole wild-type MDCKII cells)
Format: cell-based
Details: Table 2, Cl vs H comparison; read-out: MDCK IC50

Structure (SMILES) | IC50
O=C(CC1Cc2ccccc2C1)N[C@H](CN1CCCC1)[C@H](O)c1ccc(OC(F)F)cc1 [Comp. Ex. 9, reference compound] | 9.6 nM
O=C(CC1Cc2ccccc2C1)N[C@H](CN1CCCC1)[C@H](O)c1ccc(OC(F)(F)F)cc1 [Comp. Ex. 3, reference compound] | 3.6 nM
